The source of these data is patent US20160052983A1.

The experiment addresses GLP-1 receptor (DiscoveRx PathHunter eXpress GLP-1 receptor cAMP assay cells) (UniProt P43220). The experiment is described as follows: cell-based or functional assay.

Substance “unmodified exendin-4 (from UniProt P26349) (peptide)” showed a GLP-1 receptor cAMP assay (DiscoveRx PathHunter eXpress), EC50 of 0.07 nM.
